Data from PubChem BioAssay AID624171 (National Center for Advancing Translational Sciences (NCATS), 2012).
This is a selection; strong and weak results do not stand in their true shares. Some salts and complexes are drawn in separate pieces, as the source files them; their charges need not balance. Activity calls are given as the source filed them. The call rests on the fitted dose curve; in most records, active means well fitted activation curve with a large enough effect; inconclusive means small, poorly fitted or top-dose-only effect; inactive means flat fitted curve, though single readings scatter.

Experiment: qHTS of Nrf2 Activators; further: % of control where 0% means no effect; nearly all actives have a fitted effect of over 65% in size
Conditions: AREc32 ARE-luciferase reporter (MCF7-derived line), luminescence, 24 h; at 46.1 µM (top of the series) unless noted
Text: Many diseases have some form of oxidative stress injury and ties to inflammation, causing a host of problems for the patient. The antioxidant response element (ARE) plays an important role in alleviating the harmful effects of oxidative stress. The antioxidant response element (ARE) is a transcriptional regulatory element involved in the activation of genes coding for a number of antioxidant proteins and detoxifying enzymes. These enzymes work in concert to protect tissues from oxidative insults and chemical toxicities in human hepatocytes and immune cells. The protective effects of ARE activation are primarily triggered through Nrf2 (NF-E2-related factor) binding to and activating AREs. It is known that Nrf2 controls the production of over 250 antioxidant and detoxification proteins (Hu et al., 2006), thereby protecting tissues by increasing cellular antioxidant content and suppressing inflammatory signaling pathways. The transcription factor Nrf2 is a central link between oxidative chemicals, such as phenolic antioxidants and electrophilic compounds, and the activation of ARE. Nrf2 levels are constitutively low as a consequence of its interaction with Keap1, which targets its degradation (Zipper and Mulcahy, 2002). Electrophiles react with key cysteine residues in Keap1, releasing Nrf2 and allowing its translocation to the nucleus. Once within the nucleus, Nrf2 complexes with coactivators such as p300, and binds to the AREs to induce gene transcription of cytoprotective enzymes, resulting in the prevention of toxicity. Activation of Nrf2 protects tissues by increasing cellular antioxidant content and suppressing inflammatory signaling pathways. Identifying novel and potent Nrf2 activators by using the AREc32 cell line to detect ARE activation by small molecules will lead to the identification and development of probes to study protective pathways in multiple tissues. These specific probes are essential to study the ARE pathway, and eventually to determine whether this pathway does activate genes that could protect against a host of diseases, including cardiovascular diseases, obesity, diabetes, Alzheimer's, and Parkinson's disease.
This project's aim is to identify novel and potent Nrf2 activators by using the AREc32 cell line to detect ARE activation by small molecules, which will lead to the identification and development of probes to study the ARE pathway.
NIH Chemical Genomics Center [NCGC]
NIH Molecular Libraries Probe Centers Network [MLPCN]
Assay Submitter (PI): Curtis Klaassen, University of Kansas Medical Center
5 uL of 1000 cells/well of AREc32_Fluc cells are seeded into 1536-well plate in OPTI-MEM medium with 5% FBS. The plates are incubated overnight at 37 deg C with 5% CO2. Then through pin tool transfer, 23 nL of compounds are added to each well before a 24 hr incubation at 37 deg C with 5% CO2. After the addition of 2.5 uL of Steady-Glo. the plates are kept at RT for 30 min, before they are read on the ViewLux.

Structure (SMILES)	activation
O=C(NCC1(N2CCCCC2)CCCCC1)c1ccc(OC(F)F)cc1	inactive: -0.232%
CN1CCN(CCOC(=O)C(O)(c2ccccc2)c2ccccc2)CC1	inactive: -0.469%
CC(C)c1ccc(C(=O)NCC2(N3CCOCC3)CCCCC2)cc1	inactive: -0.392%
COc1ccc(NC2CCN(C(=O)OC(C)(C)C)CC2)cc1	inactive: 2.86%
CCCCn1nnnc1C(c1cccc2ccccc12)N1CCC(n2c(=O)[nH]c3ccccc32)CC1 (stereo not given)	inactive: -1.04%
COc1cc(C(=O)NCC2(N3CCCCC3)CCCCC2)ccc1OC(F)F	inactive: -0.137%
O=C(NCC1(N2CCOCC2)CCCCC1)c1cc(=O)[nH]c2ccccc12	inactive: 0.694%
CCCOc1cccc(C(=O)NCC2(N3CCOCC3)CCCCC2)c1	inactive: -0.447%
O=C(NCC1(N2CCCCC2)CCCCC1)c1cccc(C(F)(F)F)c1	inactive: 0.248%
O=[N+]([O-])c1cc([N+](=O)[O-])c(NCC2CCS(=O)(=O)C2)c([N+](=O)[O-])c1 (stereo not given)	inactive: -0.575%
CCCCn1nnnc1C(c1ccnc2ccccc12)N1CCC(n2c(=O)[nH]c3ccccc32)CC1 (stereo not given)	inactive: 0.171%
COc1cc(OC)c(C(=O)NCC2(N(C)C)CCCCC2)cc1OC	inactive: -0.766%
CCC(c1nnnn1C(C)(C)C)N1CCC(n2c(=O)[nH]c3ccccc32)CC1 (stereo not given)	inactive: 0.0702%
O=C(NCC1(N2CCOCC2)CCCCC1)c1cc(F)c(F)cc1Cl	inactive: -0.212%
COc1ccc(CN(CCCl)CCCl)cc1Cl	inactive: -0.82% [at 9.22 µM]
O=[N+]([O-])c1cc([N+](=O)[O-])c(OC2CCCCC2O)c([N+](=O)[O-])c1 (stereo not given)	inactive: 0.407%
CN(C)c1cccc(C(=O)NCC2(N3CCCCC3)CCCCC2)c1	inactive: 0.201%
CC(C)c1ccc(NC2CCN(C(=O)OC(C)(C)C)CC2)cc1	inactive: 2.54%
CCCCn1nnnc1C(c1ccccc1OC(F)(F)F)N1CCC(n2c(=O)[nH]c3ccccc32)CC1 (stereo not given)	inactive: -3.27%
CCCCOc1ccccc1C(=O)NCC1(N2CCOCC2)CCCCC1	inactive: 7.36%
Cc1ccc(C(=O)NCC2(N(C)C)CCCCC2)o1	inactive: -0.495%
O=C(NCC1(N2CCOCC2)CCCCC1)c1ccccc1Br	inactive: -1.14%
CCCOc1ccc(C(=O)NCC2(N(C)C)CCCCC2)cc1OC	inactive: 1.87%

Structure (SMILES)	activation
COc1ccc(C(c2nnnn2C2CCCC2)N2CCC(n3c(=O)[nH]c4ccccc43)CC2)cc1 (stereo not given)	inactive: 5.28%
CN1CCC(Nc2cccc(F)c2)CC1	inactive: 1.72%
COc1ccc2c(c1O)-c1c(O)c(OC)cc3c1[C@H](C2)[N+](C)(C)CC3.O=[N+]([O-])c1cc([N+](=O)[O-])c([O-])c([N+](=O)[O-])c1[O-]	inactive: -0.595%
O=C(NCC1(N2CCCCC2)CCCCC1)c1cncc(Br)c1	inactive: -0.468%
O=C(OC1CN2CCC1CC2)c1ccc([N+](=O)[O-])cc1 (stereo not given)	inactive: -0.0527%
COc1ccc(C(=O)NCC2(N3CCOCC3)CCCCC2)cc1OC	inactive: 0.0245%
O=c1[nH]c2ccccc2n1C1CCN(C(c2ccnc3ccccc23)c2nnnn2C2CCCC2)CC1 (stereo not given)	inactive: 5.15%
O=c1[nH]c2ccccc2n1C1CCN(C(c2cccs2)c2nnnn2C2CCCCC2)CC1 (stereo not given)	inactive: 0.336%
O=C(NCC1(N2CCOCC2)CCCCC1)c1cc(Br)ccc1Cl	inactive: -0.699%
CCCCn1nnnc1C(c1ccccc1)N1CCC(n2c(=O)[nH]c3ccccc32)CC1 (stereo not given)	inactive: -0.224%
COc1cc(C(=O)NCC2(N3CCOCC3)CCCCC2)cc(OC)c1C	inactive: 3.55%
CCCCn1nnnc1C(c1cccc(OC)c1OC)N1CCC(n2c(=O)[nH]c3ccccc32)CC1 (stereo not given)	inactive: -1.11%
CCc1cc(C(=O)NCC2(N3CCCCC3)CCCCC2)sc1C	inactive: 3.96%
O=C(OC1CN2CCC1CC2)C1c2ccccc2C=Cc2ccccc21 (stereo not given)	inactive: -0.343%
O=C(O)c1cccc(Nc2c([N+](=O)[O-])cc([N+](=O)[O-])cc2[N+](=O)[O-])c1	inactive: 9.01%
O=c1[nH]c2ccccc2n1C1CCN(C(c2cccs2)c2nnnn2C2CCCC2)CC1 (stereo not given)	inactive: 0.982%
N/C(=N\O)c1c(N)no[n+]1[O-]	inactive: 0.455%
CCOC(=O)N1CCC(Nc2ccc(C)cc2)CC1	inactive: -0.226%
COc1cccc(C(c2nnnn2C(C)(C)C)N2CCC(n3c(=O)[nH]c4ccccc43)CC2)c1OC (stereo not given)	inactive: -0.119%
CCOC(=O)C(CC)C1=NC(C)(C)Cc2ccccc21.O=[N+]([O-])c1cc([N+](=O)[O-])c(O)c([N+](=O)[O-])c1 (stereo not given)	inactive: 0.138%
O=C(NCC1(N2CCOCC2)CCCCC1)c1ccc([N+](=O)[O-])cc1	inactive: -1.44%
CC(C)(C)OC(=O)N1CCC(N(C(=O)c2ccccc2)c2ccc(Cl)cc2)CC1	inactive: 3.38%
